# Values quoted from earlier work in patent US20080247987A1, “Block Copolymer Compositions and Uses Thereof” (ANGIOTECH INTERNATIONAL AG, priority 2005, published 2008).
# Conditions: cited from earlier work
substance,measurement,value
insulin,solubility in water,practically insoluble in water
